Counter-ions that a name gives are not always drawn.

The results in this text go back to patent US20230003721A1, “MITOTHERAPEUTICS FOR THE TREATMENT OF BRAIN DISORDERS” (The University of Florida Research Foundation, Inc., priority 2019, published 2023).

The test system of one assay is Primary forebrain neurons dissociated from C57BL/6J mice. The experiment in a line: Protection of ΔΨm (TMRM) against oxidative stress by Luperox. Conditions: 55 μM Luperox, 24 h. In kind it is cell-based, mouse.
For `O=c1c(-c2ccc(O)cc2)coc2cc(O)cc(O)c12` [GENISTEIN], the “protection of ΔΨm (TMRM fluorescence) in peroxide challenged neurons” value is given as “full protection”.
On the same count and under the same terms, to `COC(=O)[C@@H]1[C@H]2C[C@H]3c4[nH]c5ccccc5c4CCN3C[C@@H]2CC[C@@H]1O` [YOHIMBINE HYDROCHLORIDE] belongs “full protection”; to `CN(C)CCC=C1c2ccccc2COc2ccccc21` [doxepin hydrochloride], “full protection”.
Regarding `CCCCOc1ccc(C(=O)CCN2CCCCC2)cc1` [DYCLONINE HYDROCHLORIDE], the “protection of ΔΨm (TMRM fluorescence) in peroxide challenged neurons” value is “full protection”.
Still for that read-out and setting: to `CCCCOc1cc(C(=O)OCCN(CC)CC)ccc1N` [benoxinate hydrochloride] belongs “full protection”.

The assay is the same for the next values; noted with them: TMRM, 55 μM Luperox, 24 h.
With `O=c1c(-c2ccc(O)cc2)coc2cc(O)cc(O)c12` [GENISTEIN], the Luperox insult result is recorded as “rescues”.
Same read-out and setting: the entry for `COC(=O)[C@@H]1[C@H]2C[C@H]3c4[nH]c5ccccc5c4CCN3C[C@@H]2CC[C@@H]1O` [YOHIMBINE HYDROCHLORIDE] is “rescues”; for `CN(C)CCC=C1c2ccccc2COc2ccccc21` [doxepin hydrochloride] it is “rescues”.
With `CCCCOc1ccc(C(=O)CCN2CCCCC2)cc1` [DYCLONINE HYDROCHLORIDE], the Luperox insult entry is listed as “rescues”.
Still for that read-out and setting: to `CCCCOc1cc(C(=O)OCCN(CC)CC)ccc1N` [benoxinate hydrochloride] belongs “rescues”.

The assay is the same for the next values; noted with them: TMRM; Luperox and 3×TG neurons.
For the compound `O=c1c(-c2ccc(O)cc2)coc2cc(O)cc(O)c12` [GENISTEIN], the “protection against both insults (increased oxidative stress and 3×TG)” value is “protect against both insults”.
In the case of `COC(=O)[C@@H]1[C@H]2C[C@H]3c4[nH]c5ccccc5c4CCN3C[C@@H]2CC[C@@H]1O` [YOHIMBINE HYDROCHLORIDE], the “protection against both insults (increased oxidative stress and 3×TG)” value is given as “protect against both insults”.
In the case of `CN(C)CCC=C1c2ccccc2COc2ccccc21` [doxepin hydrochloride], the “protection against both insults (increased oxidative stress and 3×TG)” value was “protect against both insults”.
Take `CCCCOc1ccc(C(=O)CCN2CCCCC2)cc1` [DYCLONINE HYDROCHLORIDE]: the “protection against both insults (increased oxidative stress and 3×TG)” value was “protect against both insults”.
Same read-out and setting: the entry for `CCCCOc1cc(C(=O)OCCN(CC)CC)ccc1N` [benoxinate hydrochloride] is “protect against both insults”.
